According to patent US9388210B2, “Neuroactive 17(20)-Z-vinylcyano-substituted steroids, prodrugs thereof, and methods of treatment using same” (priority 2011, dated 2016):

Legend:
[1] = target: picrotoxin binding site on GABAA receptors; conditions: duplicate experiments in triplicate; ± SEM; read-out: IC50, inhibition of [35S]-TBPS binding
[2] = target: rat α1β2γ2L type GABAA receptors (Rattus norvegicus (Rat), UniProt P62813+P63138, INS375LLRMFSFK); experiment: Oocyte electrophysiology: potentiation of 2 μM GABA chloride currents and direct gating, Xenopus laevis oocytes; type: cell-based; conditions: ± SEM; for ratio of currents measured in the presence/absence of added compound, 0.1 μM: 0.1 μM compound; for ratio of currents measured in the presence/absence of added compound, 0.1 μM / ratio of currents measured in the presence/absence of added compound, 1 μM / ratio of currents measured in the presence/absence of added compound, 10 μM: 2 μM GABA, N ≥ 4; for ratio of currents measured in the presence/absence of added compound, 1 μM: 1 μM compound; for (gating) 10 μM: ratio of compound only current/2 μM GABA current: 10 μM compound in the absence of GABA; for ratio of currents measured in the presence/absence of added compound, 10 μM: 10 μM compound
Description: The compounds of the present disclosure were evaluated for the ability to potentiate chloride currents mediated by 2 μM GABA at rat α1β2γ2L type GABAA receptors expressed in Xenopus laevis oocytes and the results are shown in Table 2.
The measured concentration of GABA, on average, gates about 4% of the maximum response of a cell. However, the sensitivity to GABA of the receptors, which determines the degree of steroid potentiation that can be measured, varied from one batch of oocytes to another. […] Compounds that are weak potentiators yield flat concentration-response data and frequently only augment GABA-mediated currents at the highest concentration tested (10 μM).

tadpole = experiment: Tadpole loss of righting reflex (LRR) and loss of swimming reflex (LSR); type: in vivo; conditions: loss of righting reflex; ± SEM
Text: Table 3 discloses the anesthetic effects of the compounds of the present disclosure. In particular, the anesthetic effect of the compounds of the present disclosure on Loss of Righting Reflex (LRR) and Loss of Swimming Reflex (LSR).

Row | Compound | IC50 [1] [nM] | ratio of currents measured in the presence/absence of added compound, 0.1 μM [2] | ratio of currents measured in the presence/absence of added compound, 1 μM [2] | (gating) 10 μM: ratio of compound only current/2 μM GABA current [2] | ratio of currents measured in the presence/absence of added compound, 10 μM [2] | EC50 (tadpole) [nM]
1 | C[C@]12CC[C@@H](O)C[C@@H]1CC[C@@H]1[C@@H]2C(=O)C[C@]2(C)/C(=C/C#N)CC[C@@H]12 [Compound 6b, [3α,5α,17(20)E]-3-Hydroxy-11-oxopregn-17(20)-ene-2′-nitrile] | 2030 | – | – | – | – | –
2 | C/C(C#N)=C1\CC[C@H]2[C@@H]3CC[C@H]4C[C@H](O)CC[C@]4(C)[C@H]3C(=O)C[C@]12C [Compound 6c, [3α,5α,17(20)Z]-3-Hydroxy-11-oxopregn-17(20)-ene-20-carbonitrile] | 629 ± 89 | 0.90 ± 0.05 | 1.52 ± 0.24 | 0.04 ± 0.01 | 5.02 ± 0.62 | –
3 | C[C@]12CC[C@@H](O)C[C@@H]1CC[C@@H]1[C@@H]2C(=O)C[C@]2(C)/C(=C\C#N)CC[C@@H]12 [Compound 6a, [3α,5α,17(20)Z]-3-Hydroxy-11-oxopregn-17(20)-ene-2′-nitrile] | 128 ± 11 | – | – | – | – | 1440 ± 200
4 | C[C@]12CC[C@@H](O)C[C@H]1CC[C@@H]1[C@@H]2C(=O)C[C@]2(C)/C(=C\C#N)CC[C@@H]12 [Compound 13a, [3α,5β,17(20)Z]-3-Hydroxy-11-oxo-pregn-17(20)-ene-21-nitrile] | 474 ± 35 | – | – | – | – | –
5 | C[C@]12CC[C@@H](O)C[C@H]1CC[C@@H]1[C@@H]2C(=O)C[C@]2(C)/C(=C/C#N)CC[C@@H]12 [Compound 13b, [3α,5β,17(20)E]-3-Hydroxy-11-oxo-pregn-17(20)-ene-21-nitrile] | 9600 | – | – | – | – | –
6 | [3α,5α,17(20)E]-3-(Acetyloxy)-11-oxopregn-17(20)-ene-20-carbonitrile [Compound 6d] | 1840 | 0.90 ± 0.01 | 0.86 ± 0.04 | 0.05 ± 0.02 | 1.53 ± 0.02 | –
